The list shows a part of the results, in another mix than the full data. Some salts and complexes are drawn in separate pieces, as the source files them; their charges need not balance. Active and inactive are the calls of the source.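 How the source made its calls: active means activation at or above 40% of the spot to cytoplasm intensity ratio, with at least 20 cells analyzed; inconclusive means wells under 20 cells, flagged as cytotoxic or low count; inactive means the rest.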
Molecular target: Neurotensin receptor type 1 (Homo sapiens) (UniProt P30989)
Test: NTR1-driven beta-arrestin-GFP spot formation – imaging, U2OS cells, high content, primary screen (AID 493036) (AID 493036);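 further: 0% = DMSO without peptide and 100% = 100 nM NTR1 peptide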
Conditions: agonist mode, at 20 µM, hits give high values

Sequences of proteins named here, by UniProt entry; tags and fusion partners are left off.
UniProt P30989, whole entry: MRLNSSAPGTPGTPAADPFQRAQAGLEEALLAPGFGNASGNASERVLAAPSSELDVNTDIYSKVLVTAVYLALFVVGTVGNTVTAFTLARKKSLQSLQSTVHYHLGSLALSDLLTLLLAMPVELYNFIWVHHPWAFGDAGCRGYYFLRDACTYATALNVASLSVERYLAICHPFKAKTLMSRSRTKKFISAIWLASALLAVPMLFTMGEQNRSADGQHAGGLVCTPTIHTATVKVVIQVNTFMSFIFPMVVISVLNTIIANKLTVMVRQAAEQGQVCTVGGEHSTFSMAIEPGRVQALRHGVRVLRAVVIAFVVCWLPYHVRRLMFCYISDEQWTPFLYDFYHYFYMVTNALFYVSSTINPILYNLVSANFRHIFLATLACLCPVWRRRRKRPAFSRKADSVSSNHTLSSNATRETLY

| Compound | activation |
| --- | --- |
| CCc1nc2c(n1)c1c(non1O)c1c2no[n+]1[O-] | inactive: 1.7% |
| O=[N+]([O-])c1cc([N+](=O)[O-])c(CCNc2ccccc2)c([N+](=O)[O-])c1 | inactive: 15.7% |
| CCc1ccc(OP(C)(=O)Nc2cccnc2)cc1 (centres undefined) | inactive: 0.4% |
| CP(=O)(Oc1ccccc1)N1CCOC1=O (centres undefined) | inactive: -0.7% |
| Cc1ccc(NP(=O)(Oc2ccccc2)Oc2ccccc2)nc1 | inactive: 0.4% |
| O=C(OCCCN1CCCC1)C(O)(c1ccccc1)C1CCCCC1 (centres undefined) | inactive: 0.6% |
| COc1ccccc1OP(C)(=O)Nc1c(C)n(C)n(-c2ccccc2)c1=O (centres undefined) | inactive: 4.9% |
| O=[N+]([O-])c1cccc2n[nH]nc12 | inactive: 1.8% |
| CC(=O)N1C2C3N(C(C)=O)C1C1N(C(C)=O)C(C(N1C(C)=O)N3C(C)=O)N2C(C)=O | inactive: 0.4% |
| COc1ccc(OP(C)(=O)Nc2ccc(Br)cc2)cc1 (centres undefined) | inactive: -0.8% |
| COc1ccc(C2=NCC(CBr)S2)cc1 (centres undefined) | inactive: 1.3% |
| CCN(CC)CC(O)COC(=O)C(O)(c1ccccc1)C1CCCCC1 (centres undefined) | inactive: -1.4% |
| CC1CCN(C(=O)Oc2c(Cl)cc(Cl)c3cccnc23)CC1 | inactive: 9.8% |
| CN(C)C(=O)OCCc1n(C)cc[n+]1C | inactive: 3.5% |
| CN(C)C(=O)c1c([N+](=O)[O-])cc([N+](=O)[O-])cc1[N+](=O)[O-] | inactive: -0.6% |
| CC(C)=N/N=C(\N)N[N+](=O)[O-] | inactive: 0.5% |
| CP(=O)(Nc1ccc(Cl)cc1)Oc1ccc(F)cc1 (centres undefined) | inactive: -1.6% |
| CCN(/C(=N/P(=O)(N1CCOCC1)N1CCOCC1)N1CCOCC1)c1ccc(OC)cc1 | inactive: -0.1% |
| C[N+]1=C2C=CC=CC=C2SC12C([N+](=O)[O-])=CC([N+](=O)[O-])=C[C-]2[N+](=O)[O-] (centres undefined) | inactive: 4.5% |
| CC(C)(C)c1ccc(OP(C)(=O)O)cc1 | inactive: 1.1% |
| Nc1ccc([As](=O)(O)c2ccc(N)cc2)cc1 | inactive: -1% |
| COc1ccccc1OP(C)(=O)Nc1ccccc1Br (centres undefined) | inactive: 3.7% |
| CP(=O)(OC12CC3CC(CC(C3)C1)C2)OC12CC3CC(CC(C3)C1)C2 | inactive: 7.4% |
| O=C(Nc1cc([As](=O)(O)O)ccc1O)c1ccccc1 | inactive: 0.6% |
| CCOC(=O)c1ccc(NP(C)(=O)Oc2ccc(Cl)cc2)cc1 (centres undefined) | inactive: -1.1% |

| Compound | activation |
| --- | --- |
| Nc1ccc2c(ccc3cccnc32)n1.O=[N+]([O-])c1cc([N+](=O)[O-])c(O)c([N+](=O)[O-])c1 | inactive: 1.1% |
| O=[N+]([O-])c1cccc(NC2=NCC(CBr)S2)c1 (centres undefined) | inactive: 0.1% |
| O=[N+]([O-])c1ncn(CCn2ncnc2[N+](=O)[O-])n1 | inactive: 1.5% |
| CC(C)(C)C(=O)NC(Sc1ccncn1)C(Cl)(Cl)Cl (centres undefined) | inactive: 1.2% |
| COc1ccc(OP(C)(=O)Nc2ccccc2Br)cc1 (centres undefined) | inactive: -0.2% |
| Cc1ccc(NP(=O)(Oc2ccccc2F)Oc2ccccc2F)nc1 | inactive: -0.6% |
| CN(C(=O)Cc1ccc(Cl)c(Cl)c1)[C@H]1CCCC[C@@H]1N1CCCC1 | inactive: -0.3% |
| COc1ccccc1OP(C)(=O)Nc1ccc(C)c(C)c1 (centres undefined) | inactive: 1.2% |
| CCOP(=O)(Nc1ccccc1)OCC | inactive: 0.1% |
| Cc1cc(SC(NC(=O)c2ccc(F)cc2)C(Cl)(Cl)Cl)ncn1 (centres undefined) | inactive: 1.3% |
| Cc1cc(C)cc(OP(C)(=O)Nc2cccc(C(F)(F)F)c2)c1 (centres undefined) | inactive: 1.3% |
| O=P(Nc1nc2ccc(Cl)cc2s1)(c1ccccc1)c1ccccc1 | inactive: -0.6% |
| O=C(O)c1ccccc1[As](=O)(O)O | inactive: 0.2% |
| CC(=O)Nc1ccc([As](=O)(O)O)cc1 | inactive: -0.8% |
| CP(=O)(OCCOc1ccccc1)OCCOc1ccccc1 | inactive: 0% |
| CP(=O)(Nc1ccc(Cl)cc1Cl)Oc1ccccc1 (centres undefined) | inactive: -1.2% |
| CCN(N=Nc1nonc1N)c1nonc1N | inactive: 0.3% |
| O=[N+]([O-])c1cc([N+](=O)[O-])c(CCN2CCOCC2)c([N+](=O)[O-])c1 | inactive: 3.9% |
| Cc1nc2ccc3ccccc3c2o1.O=[N+]([O-])c1cc([N+](=O)[O-])c(O)c([N+](=O)[O-])c1 | inactive: 1.8% |
| Clc1ccc(Cl)c(NC2=NCC(CBr)S2)c1 (centres undefined) | inactive: -1.2% |
| CN(C)CCOC(=O)C(O)(c1ccccc1)C1CCCC1 (centres undefined) | inactive: 0.1% |
| CN1CCCC(OC(=O)C(c2ccccc2)c2ccccc2)C1 (centres undefined) | inactive: -1% |
| Cc1ccc(OP(=O)(Nc2nccs2)Oc2ccc(C)cc2)cc1 | inactive: 1% |
| COc1ccc(OP(C)(=O)Nc2ccccn2)cc1 (centres undefined) | inactive: 3.6% |
| COc1ccccc1OP(=O)(Nc1ccc(C)cn1)Oc1ccccc1OC | inactive: 0% |

| Compound | activation |
| --- | --- |
| Cc1ccc(N/C(=N/P(=O)(N2CCOCC2)N2CCOCC2)N2CCOCC2)cc1 | inactive: -0.2% |
| COc1ccccc1OP(C)(=O)Nc1ccc(Br)cc1 (centres undefined) | inactive: -1.2% |
| CN(C(=O)Cc1ccc(Cl)c(Cl)c1)[C@H]1CCCC[C@H]1N1CCCC1 | inactive: -1.2% |
| NC(=O)c1cc([N+](=O)[O-])cc([N+](=O)[O-])c1N | inactive: -0.7% |
| CCc1ccc(OP(C)(=O)O)cc1 | inactive: -2.1% |
| COc1ccccc1OP(C)(=O)Nc1ccc(C)cc1C (centres undefined) | inactive: 0.7% |
| CP(=O)(Nc1ccccn1)Oc1ccccc1 (centres undefined) | inactive: -0.7% |
| Cc1c2non([O-])c-2c(C)[n+](=O)[n+]1[O-] | inactive: 4.1% |
| O=C(NC(Sc1ccncn1)C(Cl)(Cl)Cl)c1ccccc1 (centres undefined) | inactive: 2.2% |
| Oc1ccccc1CNc1ccccn1 | inactive: 0.9% |
| CC(C)CC(=O)NC(Sc1ccc(Cl)cc1)C(Cl)(Cl)Cl (centres undefined) | inactive: -1% |
| O=[N+]([O-])c1cc([N+](=O)[O-])c(Nc2ccccn2)c([N+](=O)[O-])c1 | inactive: 0.5% |
| Cc1c(NP(C)(=O)Oc2ccc(C(C)C)cc2)c(=O)n(-c2ccccc2)n1C (centres undefined) | inactive: -1.1% |
| Nc1cc(N)c2nonc2c1[N+](=O)[O-] | inactive: -0.4% |
| CC(C)c1ccc(OP(C)(=O)Nc2ccc(SC(F)(F)F)cc2)cc1 (centres undefined) | inactive: 16.8% |
| CC(C)(C)C(=O)NC(Sc1ccccc1)C(Cl)(Cl)Cl (centres undefined) | inactive: 0.6% |
| CP(=O)(Nc1ccccc1F)Oc1ccccc1 (centres undefined) | inactive: 0% |
| CCOc1ccc(C2=NCC(CBr)S2)cc1 (centres undefined) | inactive: 6.5% |
| O=P1(Nc2nc3ccc(Cl)cc3s2)COc2ccccc2O1 (centres undefined) | inactive: -0.5% |
| CC(=O)Nc1ccc(Oc2c([N+](=O)[O-])cc([N+](=O)[O-])cc2[N+](=O)[O-])cc1 | inactive: 0.7% |
| COc1ccc2c(c1O)-c1c(O)c(OC)cc3c1[C@H](C2)[N+](C)(C)CC3.O=[N+]([O-])c1cc([N+](=O)[O-])c([O-])c([N+](=O)[O-])c1[O-] | inactive: 2.1% |
| CC(=O)Nc1ccc([As](=O)(O)O)c(O)c1 | inactive: -0.7% |
| C[C@@H]1C=CCP(=O)(Oc2ccccc2)O1 (some centres undefined) | inactive: -0.4% |
| C[C@H]1OP(=O)(Oc2ccccc2)C[C@@H]2O[C@@H]21 (some centres undefined) | inactive: 3.7% |
| Cc1ccccc1CN(C)C(=O)COC(=O)C(O)(c1ccccc1)c1ccccc1 | inactive: 1.4% |

| Compound | activation |
| --- | --- |
| O=C(OCCN1CCN(CCOCc2ccccc2)CC1)C(O)(c1ccccc1)c1ccccc1 | inactive: -0.2% |
| O=C(OC1CN2CCC1CC2)c1ccc([N+](=O)[O-])cc1 (centres undefined) | inactive: 0.2% |
| COc1ccc(OP(C)(=O)Nc2ccc(SC(F)(F)F)cc2)cc1 (centres undefined) | inactive: 4.1% |
| CCOC(=O)c1ccc(NP(C)(=O)Oc2ccc(F)cc2)cc1 (centres undefined) | inactive: 2.5% |
| Cc1ccc(NP(=O)(Oc2cccc(C)c2)Oc2cccc(C)c2)nc1 | inactive: -1% |
| CCOC(=O)NC(Sc1ccccc1)C(Cl)(Cl)Cl (centres undefined) | inactive: 1.6% |
| c1ccc(-c2nn[nH]n2)c(-c2nn[nH]n2)c1 | inactive: 0.8% |
| CCNC(=S)/N=C(\N)N[N+](=O)[O-] | inactive: 0.8% |
| O=C(NC1CCS(=O)(=O)C1)NP(=S)(Oc1ccccc1)Oc1ccccc1 (centres undefined) | inactive: 0.5% |
| CN(C)C(=O)Oc1noc2ccccc12 | inactive: 0.3% |
| CCCCCOc1ccc(NP(C)(=O)Oc2ccc(Cl)cc2Cl)cc1 (centres undefined) | inactive: 13.4% |
| O=[N+]([O-])c1cc([N+](=O)[O-])c(OC2CCCCC2O)c([N+](=O)[O-])c1 (centres undefined) | inactive: -1.2% |
| Cc1ccccc1OP(=O)(Nc1ccccn1)Oc1ccccc1C | inactive: 1.7% |
| CC(NC(=O)COC(=O)C(O)(c1ccccc1)c1ccccc1)c1ccccc1 (centres undefined) | inactive: -0.8% |
| CP(=O)(Nc1ccccc1)Oc1ccc(F)cc1 (centres undefined) | inactive: -0.4% |
| CCN(CC)CCCOC(=O)C(O)(c1ccccc1)C1CCCCC1 (centres undefined) | inactive: -0.9% |
| CCC(=O)N1C2C3N(C(=O)CC)C1C1N(C(=O)CC)C(C(N1C(=O)CC)N3C(=O)CC)N2C(=O)CC | inactive: 3.3% |
| O=C(OC1CN2CCC1CC2)c1ccccc1 (centres undefined) | inactive: 0.3% |
| CC(=O)NC(SC(=S)N(CC(C)C)CC(C)C)C(Cl)(Cl)Cl (centres undefined) | inactive: 2.9% |
| Cc1ccc(OP(=O)(Nc2ccccn2)Oc2ccc(C)cc2)cc1 | inactive: 6% |
| COC(=O)c1cc2c(s1)N=C(c1ccccc1)N(C)P2(=O)N1CCOCC1 (centres undefined) | inactive: 0.3% |
| COc1ccc(NP(C)(=O)Oc2ccccc2OC)cc1 (centres undefined) | inactive: -0.5% |
| C[C@H]1OP(=O)(Oc2ccccc2)[C@H](O)[C@H](O)[C@H]1N=[N+]=[N-] (some centres undefined) | inactive: -1.5% |
| CN(C)CCOC(=O)C(O)(c1ccccc1)C1CCCCC1 (centres undefined) | inactive: 0.4% |

Reference: PubChem BioAssay AID493036 (Sanford-Burnham Center for Chemical Genomics, 2011)
